Test results reported in US20090105116A1.

Assays:
[1] = biological target: human α-thrombin (human) (UniProt P00734); assay: amidolytic assay of α-thrombin with chromogenic substrate, Lineweaver-Burke, 37° C., 5 mM Ca2+
[2] = biological target: human α-thrombin (human) (UniProt P00734); assay: amidolytic assay of α-thrombin with chromogenic substrate, Lineweaver-Burke, 37° C., no calcium

CaM-DTI (designed binder) showed a Ki [1] of 2.2 µM and a Ki [2] of 0.48 µM.
